For this assay, the target named is T1, α-1A adrenoreceptor (rat submaxillary gland) (Rattus norvegicus, UniProt P43140).
T1 sequence (P43140 1-466): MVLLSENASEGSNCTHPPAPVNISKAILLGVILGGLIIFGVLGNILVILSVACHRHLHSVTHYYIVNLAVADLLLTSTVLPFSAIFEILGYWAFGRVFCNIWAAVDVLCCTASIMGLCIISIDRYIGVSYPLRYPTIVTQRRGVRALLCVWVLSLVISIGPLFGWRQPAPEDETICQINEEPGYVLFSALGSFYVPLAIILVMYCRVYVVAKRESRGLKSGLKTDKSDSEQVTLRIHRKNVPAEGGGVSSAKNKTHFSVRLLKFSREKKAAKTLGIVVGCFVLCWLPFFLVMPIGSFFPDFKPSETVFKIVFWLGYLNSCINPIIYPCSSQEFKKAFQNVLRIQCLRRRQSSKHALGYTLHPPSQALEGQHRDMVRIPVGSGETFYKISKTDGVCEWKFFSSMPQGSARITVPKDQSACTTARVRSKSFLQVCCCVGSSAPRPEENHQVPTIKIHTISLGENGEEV
The following applies: read-out: Radioligand Binding (Ki, nM) 1A (Rat); [3H]-prazosin radioligand; rat submaxillary gland membranes.

One may read the Ki as the equilibrium dissociation constant of an inhibitor or competing ligand from its target. Regarding `COc1cc2nc(N3CCN(C(=O)C4CCCO4)CC3)nc(N)c2cc1OC` (stereo not shown) [Terazosin, terazosin, reference compound], the inhibition constant (Ki) came out at 0.829 nM.

The record behind these values is patent publication EP0942911B1, “BENZOPYRANOPYRROLE AND BENZOPYRANOPYRIDINE ALPHA-1 ADRENERGIC COMPOUNDS” (Abbott Laboratories, priority 1996, dated 1998).
